# Reference: PMC9785397, “Exploiting Conserved Quorum Sensing Signals in Streptococcus mutans and Streptococcus pneumoniae” (Microorganisms, 2022)
# How the values were obtained:
# [1] = test system: S. mutans; assay type: cell-based, Streptococcus mutans; conditions: peptides 0–50 μM, 16 h, 37 °C, microaerophilic, A620 nm, three separate experiments
# Excerpt: (§1) Streptococcus mutans Clarke (strain designation NCTC 10449), Pseudomonas aeruginosa (Schroeter) Migula (strain designation PAO1), Fusobacterium nucleatum, subspecies nucleatum (strain VPI 4355), and Porphyromonas gingivalis (strain 2561) were purchased from ATCC (LGC Standards Srl, Milan, Italy). Streptococcus mitis, Streptococcus oralis, and Streptococcus sanguinis were obtained from clinical isolates and characterized by morphological, biochemical, and molecular typing. S. mutans, S. mitis, S. oralis, and S. sanguinis were maintained in Brain Heart Infusion (BHI) broth or agar under microaerophilic conditions. P. aeruginosa was maintained in trypticase soy (TS) agar or broth. F. nucleatum was maintained in TS agar or broth with defibrinated sheep blood under anaerobic conditions. P. gingivalis was maintained in ATCC Medium 2722 supplemented with TS broth or agar under anaerobic conditions. […]
# (§2) The antimicrobial activities of the tested peptides were assessed through the determination of the minimum inhibitory concentration (MIC) standardized by the Clinical and Laboratory Standards Institute. […] At the end of incubation, bacterial growth was recorded using a microplate reader (Varioskan Lux Reader; Thermo Fisher Scientific, Milan, Italy) by quantifying the adsorption at 620 nm. […]
# [2] = test system: S. mitis; assay type: cell-based, Streptococcus mitis; conditions: peptides 0–50 μM, 16 h, 37 °C, microaerophilic, A620 nm, three separate experiments
# Excerpt: as §1, §2
# [3] = test system: S. oralis; assay type: cell-based, Streptococcus oralis; conditions: peptides 0–50 μM, 16 h, 37 °C, microaerophilic, A620 nm, three separate experiments
# Excerpt: as §1, §2
# [4] = test system: S. sanguinis; assay type: cell-based, Streptococcus sanguinis; conditions: peptides 0–50 μM, 16 h, 37 °C, microaerophilic, A620 nm, three separate experiments
# Excerpt: as §1, §2
# [5] = test system: P. aeruginosa; assay type: cell-based, Pseudomonas aeruginosa; conditions: peptides 0–50 μM, 16 h, 37 °C, aerobic, A620 nm, three separate experiments
# Excerpt: as §1, §2
# [6] = test system: F. nucleatum; assay type: cell-based, Fusobacterium nucleatum; conditions: peptides 0–50 μM, 16 h, 37 °C, anaerobic, A620 nm, three separate experiments
# Excerpt: as §1, §2
# [7] = test system: P. gingivalis; assay type: cell-based, Porphyromonas gingivalis; conditions: peptides 0–50 μM, 16 h, 37 °C, anaerobic, A620 nm, three separate experiments
# Excerpt: as §1, §2
# [8] = test system: S. mutans bacteriocin production against S. mitis; assay: Bacteriocin overlay assay, S. mutans spotted on S. mitis; assay type: cell-based, Streptococcus mutans; conditions: analog 20 μM with CSP1 20 μM, 16 h, p < 0.05 vs CSP1
# Protocol: (§3) During the formation of complex biofilm such as dental plaque, the ability of S. mutans to compete with other commensal species determines the success of the cariogenesis process. S. mutans uses antibacterial peptides, namely, bacteriocins, to overcome and subvert the composition of dental microbiota. We investigated the production of bacteriocins using the overlay assay. Overnight cultures of S. mitis, S. oralis, S. sanguinis, P. aeruginosa, F. nucleatum, or P. gingivalis were diluted 1:100 in BHI or TS broth and incubated at 37 °C until they reached an OD620 of 0.3. Cultures were added with agar (BD Difco^TM Agar) at the final concentration of 1.5% w/v and transferred in plates. Overnight cultures of S. mutans were diluted 1:100 in BHI and added with peptides (20 μM) or the vehicle with or without CSP1. Culture media were supplemented with agar to reach the final concentration of 0.7% w/v. The solutions were spotted on the surface of agar plates prepared as described above. […]
# (§4) Spots (10 for each experimental group) were acquired and analyzed using NIH Image J software (version 1.53t August 2022, https://imagej.nih.gov/ij/index.html; accessed on 7 September 2022). The appearance of a clear area on the plate (bacterial growth inhibition) was evaluated as indicative of bacteriocin activity. The diameters of the area were measured in a blinded fashion.
# [9] = test system: S. mutans bacteriocin production against S. oralis; assay: Bacteriocin overlay assay, S. mutans spotted on S. oralis; assay type: cell-based, Streptococcus mutans; conditions: analog 20 μM with CSP1 20 μM, 16 h, p < 0.05 vs CSP1
# Protocol: as §3, §4
# [10] = test system: S. mutans bacteriocin production against S. sanguinis; assay: Bacteriocin overlay assay, S. mutans spotted on S. sanguinis; assay type: cell-based, Streptococcus mutans; conditions: analog 20 μM with CSP1 20 μM, 16 h, p < 0.05 vs CSP1
# Protocol: as §3, §4
compound,measurement,setting,value
CC[C@H](C)[C@H](NC(=O)[C@H](Cc1ccccc1)NC(=O)[C@H](CC(=O)O)NC(=O)[C@H](CCCNC(=N)N)NC(=O)[C@H](Cc1ccccc1)NC(=O)[C@H](Cc1ccccc1)NC(=O)[C@H](CCCCN)NC(=O)[C@H](CO)NC(=O)[C@H](CC(C)C)NC(=O)[C@H](CCCNC(=N)N)NC(=O)[C@H](CCSC)NC(=O)C[C@@H](N)CCC(=O)O)C(=O)N[C@@H](CC(C)C)C(=O)N[C@@H](CCC(N)=O)C(=O)N[C@@H](CCCNC(=N)N)C(=O)N[C@@H](CCCCN)C(=O)N[C@@H](CCCCN)C(=O)O [CSP1hβE],"Minimum inhibitory concentration (MIC), S. mutans",[1],20 µM
same,"Minimum inhibitory concentration (MIC), S. mitis",[2],20 µM
same,"Minimum inhibitory concentration (MIC), S. oralis",[3],20 µM
same,"Minimum inhibitory concentration (MIC), S. sanguinis",[4],20 µM
same,"Minimum inhibitory concentration (MIC), P. aeruginosa",[5],>50 µM
same,"Minimum inhibitory concentration (MIC), F. nucleatum",[6],>50 µM
same,"Minimum inhibitory concentration (MIC), P. gingivalis",[7],>50 µM
same,Effect on the CSP1-induced antibacterial effects against S. mitis,[8],did not report significant effects
same,Effect on the CSP1-induced antibacterial effects against S. oralis,[9],did not report significant effects
same,Effect on the CSP1-induced antibacterial effects against S. sanguinis,[10],did not report significant effects
